Results as given in patent US8426463B2, “[((1R,2S,5R)-2-isopropyl-5-methyl-cyclohexanecarbonyl)-amino]-acetic acid isopropyl ester and related compounds and their use in therapy” (priority 2011, dated 2013).

System: Salmonella typhimurium tester strain TA1535
Test: Ames test in TA1535 with and without S9-mix (Notox)
Details: absence and presence of S9-metabolic activation

CC(C)OC(=O)CNC(=O)[C@@H]1C[C@H](C)CC[C@H]1C(C)C [Gly-O-iPr, [((1R,2S,5R)-2-isopropyl-5-methyl-cyclohexanecarbonyl)-amino]-acetic acid isopropyl ester]
increase in the number of revertant (His+) colonies: did not induce a significant dose-related increase
